The results in this text go back to ChEMBL document CHEMBL1938349 (Bioorg Med Chem, 2012).

Sequences of proteins named here, by UniProt entry; tags and fusion partners are left off.
UniProt P30729, whole entry: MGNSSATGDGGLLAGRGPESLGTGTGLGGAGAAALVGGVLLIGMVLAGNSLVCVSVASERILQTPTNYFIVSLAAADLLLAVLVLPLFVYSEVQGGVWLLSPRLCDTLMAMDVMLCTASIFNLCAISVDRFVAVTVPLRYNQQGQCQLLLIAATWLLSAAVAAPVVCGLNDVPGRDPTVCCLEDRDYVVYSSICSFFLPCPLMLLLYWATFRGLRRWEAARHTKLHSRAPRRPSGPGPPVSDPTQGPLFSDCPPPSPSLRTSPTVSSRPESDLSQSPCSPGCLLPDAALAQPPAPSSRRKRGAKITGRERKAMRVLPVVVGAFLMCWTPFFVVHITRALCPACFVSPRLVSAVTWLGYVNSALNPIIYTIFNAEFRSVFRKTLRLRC
UniProt P28223, whole entry: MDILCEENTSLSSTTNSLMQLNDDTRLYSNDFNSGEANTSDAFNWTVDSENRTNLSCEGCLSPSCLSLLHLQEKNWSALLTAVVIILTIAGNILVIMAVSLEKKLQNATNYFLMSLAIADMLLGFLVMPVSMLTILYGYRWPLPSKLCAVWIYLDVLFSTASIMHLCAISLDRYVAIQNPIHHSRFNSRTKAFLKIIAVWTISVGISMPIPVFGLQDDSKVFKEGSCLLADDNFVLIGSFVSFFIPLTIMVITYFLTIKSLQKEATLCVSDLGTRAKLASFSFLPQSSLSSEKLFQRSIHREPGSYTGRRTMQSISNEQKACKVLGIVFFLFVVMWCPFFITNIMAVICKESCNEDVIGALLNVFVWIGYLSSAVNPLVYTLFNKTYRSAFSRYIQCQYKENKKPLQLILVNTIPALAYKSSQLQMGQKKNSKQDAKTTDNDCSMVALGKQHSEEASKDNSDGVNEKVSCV
UniProt P35462, whole entry: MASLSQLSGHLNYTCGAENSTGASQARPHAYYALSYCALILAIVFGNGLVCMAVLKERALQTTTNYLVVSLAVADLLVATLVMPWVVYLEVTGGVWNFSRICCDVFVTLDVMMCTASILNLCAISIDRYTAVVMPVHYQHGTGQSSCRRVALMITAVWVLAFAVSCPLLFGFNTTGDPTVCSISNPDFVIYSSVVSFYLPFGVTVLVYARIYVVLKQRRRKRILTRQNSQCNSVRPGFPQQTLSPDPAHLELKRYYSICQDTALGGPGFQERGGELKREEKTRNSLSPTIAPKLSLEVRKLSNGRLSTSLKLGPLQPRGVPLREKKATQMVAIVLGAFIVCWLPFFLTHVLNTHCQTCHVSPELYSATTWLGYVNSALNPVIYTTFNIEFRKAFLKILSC
UniProt P18825, whole entry: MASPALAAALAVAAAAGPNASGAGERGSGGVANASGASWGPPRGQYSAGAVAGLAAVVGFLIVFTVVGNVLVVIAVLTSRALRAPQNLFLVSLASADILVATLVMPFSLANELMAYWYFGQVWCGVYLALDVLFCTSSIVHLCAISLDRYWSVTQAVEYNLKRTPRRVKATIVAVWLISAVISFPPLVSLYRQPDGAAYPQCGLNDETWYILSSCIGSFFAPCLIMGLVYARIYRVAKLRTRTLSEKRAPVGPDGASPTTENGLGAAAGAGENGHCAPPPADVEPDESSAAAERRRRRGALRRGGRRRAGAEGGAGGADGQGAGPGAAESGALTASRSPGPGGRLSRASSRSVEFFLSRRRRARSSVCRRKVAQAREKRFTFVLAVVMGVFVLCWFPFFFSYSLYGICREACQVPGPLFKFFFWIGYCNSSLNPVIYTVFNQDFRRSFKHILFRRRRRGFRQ

In general, Ki refers to a measure of affinity in units of concentration, obtained from inhibition or displacement. A high value points to lower affinity.

Experiment [1] concerns the target T1, 5-hydroxytryptamine receptor 2C (Rattus norvegicus, UniProt P08909).
T1 sequence (P08909 whole entry): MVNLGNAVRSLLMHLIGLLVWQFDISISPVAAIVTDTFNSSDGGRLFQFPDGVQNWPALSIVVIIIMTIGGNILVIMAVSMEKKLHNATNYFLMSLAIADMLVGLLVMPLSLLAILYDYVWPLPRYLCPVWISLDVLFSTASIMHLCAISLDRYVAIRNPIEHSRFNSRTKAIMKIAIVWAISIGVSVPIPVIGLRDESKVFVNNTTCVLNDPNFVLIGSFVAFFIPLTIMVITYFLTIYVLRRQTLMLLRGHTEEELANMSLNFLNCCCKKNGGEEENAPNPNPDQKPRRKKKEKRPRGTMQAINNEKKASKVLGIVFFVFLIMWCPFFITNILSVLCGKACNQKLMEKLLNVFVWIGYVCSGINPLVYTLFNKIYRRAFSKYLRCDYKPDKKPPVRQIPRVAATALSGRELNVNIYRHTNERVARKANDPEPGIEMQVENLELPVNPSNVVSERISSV
Put plainly: Displacement of [3H]mesulergine from rat 5HT2C receptor by liquid scintillation counting. In general terms: Loss of bound radioactivity is the signal in a displacement assay; it reports binding, not function.

In the next experiment the target is D(4) dopamine receptor (Rattus norvegicus, UniProt P30729). Put plainly: Displacement of [3H]N-methylspiperone from rat dopamine D4 receptor by liquid scintillation counting.
In experiment [2] the target is 5-hydroxytryptamine receptor 2A (Homo sapiens, UniProt P28223). Kind of experiment: Displacement of [3H]DOI from human 5HT2A receptor after 1 hr by liquid scintillation counting.
A further experiment has as its target D(3) dopamine receptor (Homo sapiens, UniProt P35462). Kind of experiment: Displacement of [3H]N-methylspiperone from human dopamine D3 receptor by liquid scintillation counting.
Experiment [3] has as its target Alpha-2C adrenergic receptor (Homo sapiens, UniProt P18825). Kind of experiment: Displacement of [3H]clonidine from human Alpha-2C receptor by liquid scintillation counting.

In the case of `O=C(CCCN1CCN(c2ncccn2)CC1)c1ccc(F)cc1`, the Ki in experiment [1] came to 4130 nM; on D(4) dopamine receptor it was 6.5 nM.
Consider `OC1(c2ccc(Cl)cc2)CCN(CCCSc2ccc(F)cc2)CC1`, for which the inhibition constant (Ki) was 72 nM in experiment [2], 248 nM at D(4) dopamine receptor and 49 nM on D(3) dopamine receptor.
The compound `OC1(c2ccc(Cl)cc2)CCN(CCCOc2ccc(F)cc2)CC1` gave a Ki at D(4) dopamine receptor of 2.4 nM.
`Fc1ccc(OCCCN2CCN(c3ccccn3)CC2)cc1` gave an inhibition constant Ki in experiment [3] of 194 nM.
